Reference: patent publication US20220346381A1, “COMPOSITION FOR PREVENTING THE FORMATION OF SEEDS IN FRUIT” (ASOCIACION CLUB DE VARIEDADES VEGETALES PROTEGIDAS, priority 2019, published 2022)

Test system: Nadorcott variety (mandarin)
Experiment: Treatment of entire trees, number of seeds in the fruit
Type: in vivo
Conditions: about 120 fruits per treatment, positive control C+ 3.3

ammonium nitrate
mean number of seeds in the fruit: 2.876

Some compounds may have been tested in ways that are not shown here.
